These are literature values, as cited in patent publication US4361573A, “α,α-Diaryl-β-(tert-amino)-propanols and diuretic pharmaceutical compositions containing them” (Temmler AG, priority 1974, dated 1982).

The conditions of the series: mouse, in vivo, po; cited from earlier work.

`Nc1nc(N)c2nc(-c3ccccc3)c(N)nc2n1` [2.4.7-triamino-6-phenyl-pteridine, reference compound]: the LD50 result is listed as “ca. 300 mg/kg”.
